# Measured affinities in a library of Ab-14 heavy chain variants

Binding partner: SARS-CoV-2 spike HR2 peptide, sequence PDVDLGDISGINAS.

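The parent was found by panning a naive human phage display library on the peptide. Designed CDR sequences, proposed from the first random library and measured here. Their group label is 14H_En_Gibbs (En: ensemble of fine-tuned language models; Gibbs: Gibbs sampling). The scFvs were displayed on barcoded MATa yeast, the peptide on MATalpha yeast. Mating (16 h, 30 °C) was followed by selection of diploids and sequencing of their barcodes. Scores were corrected for input abundance and mapped to Kd with protein pairs of known affinity run in the same pool. There are six technical replicates.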

Parent: Ab-14, a human scFv built as VH, a 15-residue (Gly4Ser)3 linker, VL. Only the CDRs of the heavy chain vary.
VH: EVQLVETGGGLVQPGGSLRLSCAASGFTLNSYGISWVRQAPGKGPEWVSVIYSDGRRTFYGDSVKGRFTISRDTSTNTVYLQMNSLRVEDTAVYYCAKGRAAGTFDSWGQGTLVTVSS
VL: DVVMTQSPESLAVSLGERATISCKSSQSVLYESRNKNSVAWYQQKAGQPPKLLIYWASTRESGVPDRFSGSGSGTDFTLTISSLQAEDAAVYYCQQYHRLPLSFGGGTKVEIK

Sequences are complete VH domains.
The read-out is the apparent dissociation constant on a log10 scale (nM): the lower, the stronger.
A mean of the replicates is given; it leaves out those without a signal.
An entry "n.d." has no value in the source: the pair was not observed among the diploids in that replicate. This suggests poor binding but is not conclusive.

| # | VH | log10 Kd (nM) by replicate | mean log10 Kd (nM) | empty controls |
|---|---|---|---|---|
| 1 | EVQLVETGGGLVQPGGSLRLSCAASGKDLEEYGISWVRQAPGKGPEWVSVIYADGRRSAYTDNVKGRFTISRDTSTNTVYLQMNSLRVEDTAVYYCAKGHAGNIFMSWGQGTLVTVSS | n.d. n.d. n.d. n.d. 2.20 n.d. | 2.20 | 0 of 18 |
| 2 | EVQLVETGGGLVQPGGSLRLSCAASGFDLGEYGISWVRQAPGKGPEWVSVIYADGRRFAYSQSVKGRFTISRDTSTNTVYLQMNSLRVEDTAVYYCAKGLNEGMLVIWGQGTLVTVSS | n.d. n.d. n.d. n.d. n.d. n.d. | n.d. | 0 of 18 |
| 3 | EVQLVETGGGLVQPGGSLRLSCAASGFDLGEYGISWVRQAPGKGPEWVSVIYADGVRQSYVDKVKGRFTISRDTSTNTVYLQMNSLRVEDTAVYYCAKGANGVFSLVWGQGTLVTVSS | n.d. n.d. n.d. n.d. n.d. n.d. | n.d. | 0 of 18 |
| 4 | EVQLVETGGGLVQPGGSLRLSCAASGDQLDEYGISWVRQAPGKGPEWVSVIYADGMRTMYADSFKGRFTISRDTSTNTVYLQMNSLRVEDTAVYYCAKGNKSVNIGDWGQGTLVTVSS | n.d. n.d. n.d. n.d. n.d. n.d. | n.d. | 0 of 18 |
| 5 | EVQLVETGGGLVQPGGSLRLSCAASGFNFDEYGISWVRQAPGKGPEWVSVIYADGMRRQYVDDVKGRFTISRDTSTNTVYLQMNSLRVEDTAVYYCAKGSHSDVFNMWGQGTLVTVSS | -0.32 0.45 0.50 -0.18 1.05 0.90 | 0.40 | 0 of 18 |
| 6 | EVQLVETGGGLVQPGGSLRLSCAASGFSIDEYGISWVRQAPGKGPEWVSVIYADGARAFYADKVKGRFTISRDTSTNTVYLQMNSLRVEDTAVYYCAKGQEVGDLITWGQGTLVTVSS | -0.27 -0.14 -0.42 -0.47 -0.37 -0.02 | -0.28 | 0 of 18 |
| 7 | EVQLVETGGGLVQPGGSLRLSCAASGFDIEEYGISWVRQAPGKGPEWVSVIYADGMRTVYSDSFKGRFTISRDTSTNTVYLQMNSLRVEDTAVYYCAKSGRTFNIDLWGQGTLVTVSS | n.d. n.d. n.d. n.d. n.d. n.d. | n.d. | 0 of 18 |
| 8 | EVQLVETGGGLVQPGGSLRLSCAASGDSLNEYGISWVRQAPGKGPEWVSVIYADGQRSYYANSVKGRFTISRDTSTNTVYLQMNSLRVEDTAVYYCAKGEVDGLFSQWGQGTLVTVSS | n.d. n.d. n.d. n.d. n.d. n.d. | n.d. | 0 of 18 |
| 9 | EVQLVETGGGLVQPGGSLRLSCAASGFNLDEYGISWVRQAPGKGPEWVSVIYADGMRTVYAKNVKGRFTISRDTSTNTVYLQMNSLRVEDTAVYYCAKGQNVGFTVFWGQGTLVTVSS | n.d. n.d. n.d. n.d. n.d. n.d. | n.d. | 0 of 18 |
| 10 | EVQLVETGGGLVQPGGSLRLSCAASGFDLEEMGVSWVRQAPGKGPEWVSVIYADGIRTAYHQKVKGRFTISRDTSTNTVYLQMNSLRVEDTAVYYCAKGQAAGTFDLWGQGTLVTVSS | -0.03 -0.23 -0.44 -0.48 -0.33 -0.24 | -0.29 | 1 of 18 (2.47) |
| 11 | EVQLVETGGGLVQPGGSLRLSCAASGFNIEEFGISWVRQAPGKGPEWVSVIYADGKRSSVSDSVKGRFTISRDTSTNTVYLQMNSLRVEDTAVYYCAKGQLGNAFDLWGQGTLVTVSS | n.d. n.d. n.d. 2.50 n.d. n.d. | 2.50 | 0 of 18 |
| 12 | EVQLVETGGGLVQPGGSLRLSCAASGFLIDEYGISWVRQAPGKGPEWVSVIYADGQRTAYADDVKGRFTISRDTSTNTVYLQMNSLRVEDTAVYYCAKGYVGTIGGIWGQGTLVTVSS | n.d. n.d. n.d. n.d. n.d. n.d. | n.d. | 1 of 18 (1.22) |
| 13 | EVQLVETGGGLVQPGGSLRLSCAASGFDLDEYGVSWVRQAPGKGPEWVSVIYADGHRAQYTEDVKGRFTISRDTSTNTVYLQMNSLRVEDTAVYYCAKGTNSGAVDMWGQGTLVTVSS | n.d. n.d. n.d. n.d. n.d. n.d. | n.d. | 0 of 18 |
| 14 | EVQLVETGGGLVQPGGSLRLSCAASGEGLDEYGISWVRQAPGKGPEWVSVIYADGSRSSYTDKVKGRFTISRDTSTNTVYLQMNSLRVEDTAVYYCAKGHNFGLKMVWGQGTLVTVSS | n.d. n.d. n.d. n.d. n.d. n.d. | n.d. | 0 of 18 |
| 15 | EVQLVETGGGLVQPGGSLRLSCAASGFQLDEYGISWVRQAPGKGPEWVSVIYADGSRTAYQDSVKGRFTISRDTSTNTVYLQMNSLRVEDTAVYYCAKGKYKFSLVVWGQGTLVTVSS | n.d. n.d. n.d. n.d. n.d. n.d. | n.d. | 0 of 18 |
| 16 | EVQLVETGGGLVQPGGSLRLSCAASGYDIQDYGISWVRQAPGKGPEWVSVIYADGVRKVYHDSVKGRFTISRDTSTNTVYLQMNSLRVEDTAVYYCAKGQLAGFFITWGQGTLVTVSS | n.d. n.d. n.d. n.d. n.d. n.d. | n.d. | 0 of 18 |
| 17 | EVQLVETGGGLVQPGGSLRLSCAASGFDIEEYGISWVRQAPGKGPEWVSVIYADGQRKSYINSFKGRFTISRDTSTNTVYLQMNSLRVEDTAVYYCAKGQSNGTGMYWGQGTLVTVSS | n.d. 2.81 n.d. n.d. n.d. n.d. | 2.81 | 1 of 18 (1.91) |
| 18 | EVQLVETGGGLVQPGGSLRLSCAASGFNLEEYGISWVRQAPGKGPEWVSVIYADGMRTAYTDKVKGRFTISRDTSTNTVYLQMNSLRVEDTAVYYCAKGGLDDQEGYWGQGTLVTVSS | n.d. n.d. n.d. n.d. n.d. n.d. | n.d. | 0 of 18 |
| 19 | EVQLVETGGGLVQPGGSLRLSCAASGFDLEEFGISWVRQAPGKGPEWVSVIYADGTRTMYLPTVKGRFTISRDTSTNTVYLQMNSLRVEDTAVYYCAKGVTGGTFDMWGQGTLVTVSS | 1.96 2.47 1.47 1.52 2.09 n.d. | 1.90 | 0 of 18 |
| 20 | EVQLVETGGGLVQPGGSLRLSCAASGFDLESYGISWVRQAPGKGPEWVSVIYADGRRSAYHDSVKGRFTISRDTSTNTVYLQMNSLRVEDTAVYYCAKGTNGSVSFVWGQGTLVTVSS | n.d. n.d. n.d. n.d. n.d. n.d. | n.d. | 2 of 18 (2.70) |
| 21 | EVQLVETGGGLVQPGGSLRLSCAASGKDLEEYGISWVRQAPGKGPEWVSVIYADGVRTAYLDQVKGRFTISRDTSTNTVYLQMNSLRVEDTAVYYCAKGESGGAYYTWGQGTLVTVSS | n.d. n.d. n.d. n.d. n.d. n.d. | n.d. | 0 of 18 |
| 22 | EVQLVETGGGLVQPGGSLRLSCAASGFNLDEYGISWVRQAPGKGPEWVSVIYADGMRENYADSVKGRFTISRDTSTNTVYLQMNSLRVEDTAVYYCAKDGSWVQQLGWGQGTLVTVSS | n.d. n.d. n.d. n.d. n.d. n.d. | n.d. | 0 of 18 |
| 23 | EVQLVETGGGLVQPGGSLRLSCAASGQDLNEYGISWVRQAPGKGPEWVSVIYADGLRTAYTENVKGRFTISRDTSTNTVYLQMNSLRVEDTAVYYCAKGNQSQFDSGWGQGTLVTVSS | n.d. n.d. n.d. n.d. 3.04 n.d. | 3.04 | 0 of 18 |

For reference, 3 entries of the list once more:

VH	log10 Kd (nM) by replicate	mean log10 Kd (nM)	empty controls
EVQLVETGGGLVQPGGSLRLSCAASGFDIEEYGISWVRQAPGKGPEWVSVIYADGQRKSYINSFKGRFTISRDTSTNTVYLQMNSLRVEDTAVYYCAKGQSNGTGMYWGQGTLVTVSS	n.d. 2.81 n.d. n.d. n.d. n.d.	2.81	1 of 18 (1.91)
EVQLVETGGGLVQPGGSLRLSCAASGFDIEEYGISWVRQAPGKGPEWVSVIYADGMRTVYSDSFKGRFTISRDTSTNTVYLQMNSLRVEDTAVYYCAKSGRTFNIDLWGQGTLVTVSS	n.d. n.d. n.d. n.d. n.d. n.d.	n.d.	0 of 18
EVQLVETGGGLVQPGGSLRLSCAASGFLIDEYGISWVRQAPGKGPEWVSVIYADGQRTAYADDVKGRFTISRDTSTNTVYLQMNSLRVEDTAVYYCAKGYVGTIGGIWGQGTLVTVSS	n.d. n.d. n.d. n.d. n.d. n.d.	n.d.	1 of 18 (1.22)

Three control strains display no target. For all heavy chain designs, 1% of the pairings with them gave a signal, with a median of 2.08 and one signal in twenty below 0.84, so weak values seen in few replicates may be background. For each scFv, signals with the empty controls are counted beside the result, with their mean in brackets.
The range of this assay differs from that of the first round, and the authors advise against merging the two.
The authors' rule: three or more of the six replicates give a measured affinity, fewer mean a poor binder.
Of ten entries with the parent sequence, four were seen in most replicates (averages 0.34 to 2.37), three in one and three in none, so single entries are noisy.

Values reported by Li et al. 2023, doi:10.1038/s41467-023-39022-2 (FLAb copy).